{
  "source": "ChEMBL document CHEMBL4229413",
  "about": "“Identification by Inverse Virtual Screening of magnolol-based scaffold as new tankyrase-2 inhibitors” (Bioorg Med Chem, 2018)",
  "organism": "Homo sapiens",
  "assay": "Selectivity ratio of Kd for recombinant human N-terminal GSt-tagged TNKS1 (1000 to 1328 residues) expressed in baculovirus infected Sf9 cells to Kd for recombinant human N-terminal His-tagged TNKS2 (Ser959 to Gly1166 residues) expressed in Escherichia coli",
  "data": [
    {"molecule": "C=CCc1cc(O)c(O)c(-c2cc(CC=C)cc(OC)c2O)c1", "values": [
      {"measurement": "Selectivity ratio", "value": 25}
    ]}
  ]
}
